Assay outcomes (PubChem)
ALDH1A1 inh – inhibitors of human aldehyde dehydrogenase 1A1; hit rate 7.3% among 220,000; AID 1030; Potency, µM (titrated, usually from 75.3 µM), without a hit: at the highest dose activity, negative = inhibition, hits mostly inhibitors; Purified ALDH1A1, NADH fluorescence, propionaldehyde substrate; P00352; active = well fitted inhibition curve with a large enough effect, not every such curve was filed as active; inconclusive = small, poorly fitted or top-dose-only effect, or another doubt; inactive = no such curve, though single readings can be large or run the other way;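 note: potency is the fitted concentration of half-maximal effect; plate controls were no enzyme wells and a reference inhibitor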
Lamin A splicing – changes lamin A minigene splicing in HeLa cells | HeLa LMNA splicing GFP/RFP minigene ratio, 48 h | Potency, µM (series often up to 46.1 µM), for inactives: at the highest dose ratio change, negative = inhibition, usual class: inhibitors | hit rate 0.01% among 200,000 | AID 1487; active = well fitted inhibition curve with a large enough effect in the signal ratio, with a control signal flat, not every such curve was filed as active; inconclusive = small, poorly fitted or top-dose-only effect, or effect the other way, or a change in a side signal; the % refers to the signal ratio; note: potency is the fitted concentration of half-maximal effect; % is set by controls: 0 for no effect and ±100 for the full control effect
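S3 HeLa cells stably expressing lamin A-EGFP splicing minigene plus DsRed2, 600 cells/well, 48 h compound exposure at 37C. Laser-scanning cytometry; analysed as GFP (500-530 nm)/RFP (575-640 nm) total intensity ratio; 0.5% DMSO vehicle.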
KDM4E inh – inhibitors of human JMJD2E histone demethylase; hit rate 1.6% among 230,000; Potency, µM (doses to about 57.1 µM), for inactives: at the top dose activity change, negative = inhibition, actives largely listed as inhibitors; JMJD2E catalytic domain, FDH-coupled NADH fluorescence (FDH is formaldehyde dehydrogenase); AID 2147; active = well fitted inhibition curve with a large enough effect, not every such curve was filed as active; inconclusive = small, poorly fitted or top-dose-only effect, or another doubt; inactive = no such curve, though single readings can be large or run the other way;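 note: potency is the fitted concentration of half-maximal effect; 0% = wells with enzyme and -100% = buffer wells without enzyme; nearly all actives have a fitted effect of over 50% in size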
miR-21 reporter – raises the signal of a miR-21 reporter. HeLa miR-21 FLuc reporter, luciferase, 48 h. 340,000 tested, under 10 active. Potency, µM (highest dose often 38.3 µM), for the others: at the highest dose reporter change, positive = more light; active = well fitted rising curve with a large enough effect; inconclusive = small, poorly fitted or top-dose-only effect; inactive = no such curve, though single readings can be large or run the other way;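 note: % of control where 0% means no effect; miR-21 action dims this reporter so a rising signal means less miR-21 action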
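HeLa cells endogenously expressing miR-21, stably carrying CMV-driven firefly luciferase with a downstream miR-21 binding site, 2000 cells/well. Titrations up to approximately 40 uM, 48 hours; luciferase luminescence read.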
G9a block – blocks human histone lysine methyltransferase G9a; Q96KQ7; G9a H3K9 monomethylation, AlphaScreen, 2 h; Potency, µM (series often up to 102 µM), for inactives: at the top dose activity, negative = inhibition, actives largely listed as inhibitors; hit rate 8.8% among 350,000; note: potency is the fitted concentration of half-maximal effect; % is set by controls: 0 for no effect and ±100 for the full control effect; nearly all actives have a fitted effect of over 75% in size
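G9a (20 nM) was preincubated 15 min with compound, then reacted 2 h at room temperature with 500 nM biotin-H3K9 peptide and 20 µM SAM. Monomethyl-H3K9 detected by AlphaScreen using anti-H3K9me1 antibody.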
Sfp inh – inhibitors of Bacillus subtilis Sfp phosphopantetheinyl transferase; actives 3.5% (n = 310,000); Q9F4F7; Biochemical Sfp PPTase activity, qHTS; Potency, µM, for the others: max response, negative = inhibition, hits mostly inhibitors; active = well fitted inhibition curve with a large enough effect; inconclusive = small, poorly fitted or top-dose-only effect, or another doubt; inactive = no such curve, though single readings can be large or run the other way;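 also: the enzyme is Sfp with the accession as filed and its product quenches rhodamine fluorescence; potency is read from the fitted curve at half-maximal effect; 0% = enzyme reaction without inhibitor and -100% = no enzyme wells; top concentration of the series not given in the record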
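Sfp 15 nM + cpd, 15 min RT; start w/ rhodamine-CoA 5 uM, BHQ-2-YbbR 12.5 uM (final); 50 mM Hepes pH 7.6, 10 mM MgCl2, 0.01% NP-40, 0.01% BSA; read 525/598 nm at 0 and 30 min.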
* marks the source's active call; other numbers are inactive results; u = inconclusive; x = no result; ! = a repeat was not active; [ ] = dose if it differs, or a comment. This is a sample that favours compounds with a hit; in the whole collection about 13% have one here. Unless noted, calls come from the whole dose curve; as a rule, active = well fitted curve in the direction sought with a large enough effect; inconclusive = small, poorly fitted or top-dose-only effect, or another doubt; inactive = no such curve, though single readings can be large; an effect the other way counts as inactive or inconclusive.

Field names: A = ALDH1A1 inh; B = Lamin A splicing; C = KDM4E inh; D = miR-21 reporter; E = G9a block; F = Sfp inh
mol: Cc1cccc(NC(=O)CN2CCc3cc4c(cc3C2)OCCCO4)c1
  A = x | B = x | C = x | D = -4.7% | E = 7.94µM* | F = u
mol: O=C(CN1CCc2cc3c(cc2C1)OCCCO3)Nc1cccc([N+](=O)[O-])c1
  A = x | B = x | C = x | D = -13.0% | E = 39.8µM* | F = -10.8%
mol: CC1CCN(C(=O)C2CCC(=O)N(Cc3ccc(Cl)cc3)C2)CC1 (stereo not given)
  A = x | B = x | C = x | D = -0.5% | E = 2.1% | F = 13.1%
mol: COc1ccc(CNC(=O)c2cnc(N3CCOCC3)c3ccccc23)cc1
  A = x | B = -4.8%[46 µM] | C = x | D = -2.8% | E = -1.9%[59 µM] | F = x
mol: Cc1cc(N)ccc1NC(=O)CN1CCCC1
  A = x | B = x | C = x | D = 0.5% | E = 25.1µM* | F = u
mol: Cc1cccc(NC(=O)CCN2C(=O)c3ccccc3C2=O)c1
  A = x | B = x | C = x | D = -2.7% | E = x | F = -12.8%
mol: Cc1cccc(NC(=O)CN2NS(=O)(=O)c3ccccc3C2=O)c1
  A = 10µM* | B = -9.8% | C = -2.0% | D = 0.2% | E = -2.0%[12.7 µM] | F = 20.9%
mol: CCOc1cc(OCC)cc(C(=O)NCc2ccco2)c1
  A = x | B = x | C = x | D = -3.9% | E = 18.1% | F = 8.9%
mol: CSc1nccn1C(=O)c1ccccc1[N+](=O)[O-]
  A = x | B = x | C = x | D = -0.2% | E = 35.5µM* | F = 39.8µM*
mol: Cc1cccc(-c2nnnn2-c2cccc(C)c2)c1
  A = 4.47µM* | B = 13.4%[46 µM] | C = 0.5% | D = -1.1% | E = 53.0% | F = -15.4%
mol: CC1(C)CC2C1CCC1(C)OC1CCC2(C)O (stereo not given)
  A = 4.6% | B = -9.5% | C = 19.3% | D = x | E = x | F = 3.1%
mol: COc1ccc(NC(=O)Nc2nnc(N(C)C3CCCCC3)s2)c(OC)c1
  A = x | B = x | C = x | D = 6.1% | E = -33.7%[59 µM] | F = x
mol: Cc1ccc(C(C)C)cc1OCCn1cncn1
  A = x | B = x | C = x | D = -7.2% | E = 11.2µM* | F = u
mol: Cc1ccc(OCCn2cncn2)c([N+](=O)[O-])c1
  A = x | B = x | C = x | D = -11.6% | E = 31.9% | F = 12.0%
mol: Cc1ccc(-n2ncc3c(N(CC(C)C)CC(C)C)ncnc32)c(C)c1
  A = x | B = u | C = x | D = 10.1% | E = 8.4%[59 µM] | F = x
mol: Cc1ccc(C)c(S(=O)(=O)ON2C(=O)c3ccccc3C2=O)c1
  A = u | B = -12.0% | C = u | D = -2.1% | E = 7.94µM* | F = 17.8µM*
mol: Cc1ccc(S(=O)(=O)ON2C(=O)c3cccc4cccc(c34)C2=O)cc1
  A = u | B = -11.0% | C = u | D = -7.0% | E = 27.8%[59 µM] | F = -6.2%
mol: O=C1c2ccccc2C(=O)N1OS(=O)(=O)c1ccccc1
  A = u | B = -17.7% | C = u | D = -4.9% | E = 3.98µM* | F = 10µM*
mol: Cc1cc(S(=O)(=O)ON2C(=O)c3ccccc3C2=O)ccc1F
  A = x | B = x | C = x | D = 0.1% | E = 7.08µM* | F = 11.2µM*
mol: O=C1c2cccc3cccc(c23)C(=O)N1OS(=O)(=O)c1ccccc1
  A = u | B = -8.6% | C = u | D = -16.9% | E = 26.9%[59 µM] | F = -8.5%
mol: COc1cccc(C(c2sc3nc(-c4ccco4)nn3c2O)N2CCOCC2)c1 (stereo not given)
  A = x | B = 15.2%[46 µM] | C = x | D = -3.8% | E = -30.3%[59 µM] | F = x
mol: CC1=C(c2ccc(C)c(C)c2)S(=O)(=O)N(Cc2ccc(C(=O)NCc3ccccc3F)cc2)C1=O
  A = x | B = x | C = x | D = 0.6% | E = u | F = x
mol: Cc1csc(NC(=O)CSc2nc(C)cs2)n1
  A = 5.8% | B = 11.0% | C = 2.6% | D = -11.6% | E = -20.7%[12.7 µM] | F = 0.8%
mol: COc1ccc(N2CCN(CC(=O)Nc3nc4c(s3)CC(C)CC4)CC2)cc1 (stereo not given)
  A = u | B = u | C = -0.1% | D = -0.2% | E = 10µM* | F = -11.2%
mol: COCCNCC(=O)Nc1nc(C)cs1
  A = u | B = 9.1%[46 µM] | C = u | D = -1.0% | E = 8.91µM* | F = 44.7µM*
mol: COc1ccc(N2CCN(CC(=O)Nc3ncc(C)s3)CC2)cc1
  A = x | B = x | C = x | D = -2.1% | E = 13.9%[2.33 µM] | F = -4.5%
mol: CCc1nc2ccccc2c(NC(=O)CN2CCC(C)CC2)c1C
  A = u | B = -6.2% | C = u | D = -12.1% | E = 2.82µM* | F = -27.9%
mol: COc1ccc(N2CCN(CC(=O)Nc3nc(C)cs3)CC2)cc1
  A = x | B = x | C = x | D = 0.4% | E = 3.55µM* | F = -27.2%
mol: CC1CCN(CC(=O)NCc2ccccc2)CC1
  A = 1.3% | B = 12.6% | C = -9.2% | D = -5.1% | E = 14.9%[12.7 µM] | F = 1.3%
mol: Cc1cc(NC(=O)CN2CCCCCCC2)no1
  A = -14.2% | B = 8.0% | C = -24.1% | D = -7.5% | E = u | F = -20.3%
mol: COc1ccc(N2CCN(CC(=O)Nc3cc(C)on3)CC2)cc1
  A = u | B = -2.5% | C = 25.1µM* | D = -4.7% | E = 1.78µM* | F = 50.1µM*
mol: CC(=O)c1ccc(N2CCN(CC(=O)Nc3cc(C)on3)CC2)cc1
  A = 0.7% | B = x | C = -8.7% | D = -10.0% | E = -1.9% | F = 17.3%
mol: Cc1cc(NC(=O)CN2CCC(C)CC2)no1
  A = -9.2% | B = 9.2%[46 µM] | C = u | D = -1.8% | E = 3.55µM* | F = 39.8µM*
mol: COc1ccc(N2CCN(CC(=O)Nc3cc(C)cc(C)c3)CC2)cc1
  A = x | B = x | C = x | D = -5.6% | E = 79.4µM* | F = 12.3%
mol: CC1CCCCC1NC(=O)C1CCCN(S(=O)(=O)c2ccc(-n3cnnn3)cc2)C1 (stereo not given)
  A = x | B = x | C = x | D = -3.5% | E = 13.2% | F = -2.5%
mol: COc1cccc(OCc2nc3ccccc3n2CCOc2ccccc2C)c1
  A = x | B = x | C = x | D = -22.3% | E = 10.7%[59 µM] | F = x
mol: Cc1noc(C)c1-c1nc(NCc2ccccc2)c2ccccc2n1
  A = u | B = u | C = x | D = x | E = 13.0%[0.501 µM] | F = -13.0%
mol: COc1cccc(NC(=O)c2oc3ccccc3c2NC(=O)C2CCCCC2)c1
  A = x | B = x | C = x | D = -1.3% | E = u | F = x
mol: COC(=O)c1ccc(OCC2c3cc(OC)c(OC)cc3CCN2C(=O)Cc2ccc(OC)cc2)cc1 (stereo not given)
  A = x | B = -12.5%[46 µM] | C = x | D = 5.4% | E = u | F = x
mol: O=C(Oc1ccc(C(=S)N2CCOCC2)cc1Br)c1cc(Cl)ccc1Cl
  A = 2.7% | B = 12.3% | C = 2.9% | D = -0.8% | E = 44.7µM* | F = 6.0%
mol: O=C(Oc1c(Br)cc(C(=S)N2CCOCC2)cc1Br)c1ccc(Cl)cc1
  A = 6.31µM* | B = 9.3% | C = 1.3% | D = 9.7% | E = x | F = -68.5%
mol: O=C(COc1ccc(F)cc1)Nc1nnc(S(=O)(=O)N2CCCC2)s1
  A = x | B = 20.0%[46 µM] | C = x | D = -3.9% | E = -3.3%[59 µM] | F = 21.6%
mol: CC[C@H](C)C(=O)O[C@H]1CCC=C2C=C[C@H](C)[C@H](CC[C@@H]3C[C@@H](O)CC(=O)O3)[C@H]21
  A = u | B = -1.4%[46 µM] | C = 1.4% | D = 10.3% | E = -0.8%[59 µM] | F = -2.2%
mol: CC[C@H](C)C(=O)O[C@H]1C[C@@H](C)C=C2C=C[C@H](C)[C@H](CC[C@@H]3C[C@@H](O)CC(=O)O3)[C@H]21
  A = 13.9% | B = u | C = u | D = -1.3% | E = 15.8µM*! | F = 7.9%
mol: CC1Cc2cc(/C(O)=C3/C(=O)C(=O)N(CCN4CCOCC4)C3c3ccc(N(C)C)cc3)ccc2O1 (stereo not given)
  A = x | B = x | C = x | D = -2.7% | E = u | F = 3.2%
mol: COC(=O)c1ccc(C2/C(=C(/O)c3ccc4c(c3)CC(C)O4)C(=O)C(=O)N2CCN2CCOCC2)cc1 (stereo not given)
  A = x | B = x | C = x | D = -1.5% | E = 50.1µM* | F = -8.0%
mol: CC(C)Oc1ccc(/C(O)=C2/C(=O)C(=O)N(CCN3CCOCC3)C2c2ccccc2)cc1 (stereo not given)
  A = 22.4µM* | B = 1.0% | C = -28.0% | D = -19.3% | E = u | F = -4.2%
mol: COc1ccc(/C(O)=C2/C(=O)C(=O)N(CCCN3CCOCC3)C2c2ccc(C)cc2)cc1 (stereo not given)
  A = x | B = x | C = x | D = -2.0% | E = u | F = 26.3%

Among those listed so far, 2 contain two or more sulfur atoms:
Field names: A = ALDH1A1 inh; B = Lamin A splicing; C = KDM4E inh; D = miR-21 reporter; E = G9a block; F = Sfp inh
mol: Cc1csc(NC(=O)CSc2nc(C)cs2)n1
  A = 5.8% | B = 11.0% | C = 2.6% | D = -11.6% | E = -20.7%[12.7 µM] | F = 0.8%
mol: O=C(COc1ccc(F)cc1)Nc1nnc(S(=O)(=O)N2CCCC2)s1
  A = x | B = 20.0%[46 µM] | C = x | D = -3.9% | E = -3.3%[59 µM] | F = 21.6%
